By UniProt entry, the sequences of proteins in these tests, tags left out. Where a name states a change or a piece, a line headed by the entry shows the natural chain unless it says otherwise.
UniProt P41145: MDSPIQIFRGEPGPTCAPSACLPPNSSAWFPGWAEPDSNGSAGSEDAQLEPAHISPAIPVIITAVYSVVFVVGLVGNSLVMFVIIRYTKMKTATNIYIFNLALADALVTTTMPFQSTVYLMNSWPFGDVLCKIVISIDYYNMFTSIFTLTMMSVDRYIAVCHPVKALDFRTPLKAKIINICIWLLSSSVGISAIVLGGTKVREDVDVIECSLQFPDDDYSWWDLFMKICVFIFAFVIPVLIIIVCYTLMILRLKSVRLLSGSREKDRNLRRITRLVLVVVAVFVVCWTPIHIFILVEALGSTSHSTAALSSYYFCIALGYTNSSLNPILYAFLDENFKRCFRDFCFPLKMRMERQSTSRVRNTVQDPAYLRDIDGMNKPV

According to ChEMBL document CHEMBL3232856, “Endomorphin analogues with mixed μ-opioid (MOP) receptor agonism/δ-opioid (DOP) receptor antagonism and lacking β-arrestin2 recruitment activity” (Bioorg Med Chem, 2014):

Biological target: Kappa-type opioid receptor (Homo sapiens, UniProt P41145)
Assay: Agonist activity at kappa opioid receptor (unknown origin) expressed in HEK293 cells assessed as inhibition of forskolin-induced cAMP accumulation at 1 uM after 30 mins

With `CN(C(=O)Cc1ccccc1)[C@H]1CC[C@@]2(CCCO2)C[C@@H]1N1CCCC1` the inhibition was “Active”.

Active and inactive are the calls of the source. The calls are words filed in the database; no cut-off is given here.
